# Tested on: Human epidermal melanocytes (HEM)
structure (smiles),measurement,value
"O=C(O)CO [GA, glycolic acid]",cytotoxicity,no cytotoxicity

# — patent US10662140B2, “Method for skin-whitening using composition containing resveratryl triglycolate” (KYUNGPOOK NATIONAL UNIVERSITY INDUSTRY-ACADEMIC COOPERATION …, priority 2016, dated 2020)
